Measurements as given in patent publication US11499964B2, “Assay to diagnose and treat disorders of the alternative pathway of complement activation” (THE JOHNS HOPKINS UNIVERSITY, priority 2015, dated 2022).

Test system: PIGA-null TF-1 cells
Assay: Modified Ham test (WST-1 cell viability after serum exposure)
Conditions: for cell killing (% non-viable cells) by HELLP serum mixed with eculizumab-containing serum: HELLP/ECU sera 50-50%, 25-75%, 12.5-87.5%, total serum 20%, versus HELLP serum alone, p=0.007

B1: eculizumab (antibody, chains of the INN, looked up)
heavy: QVQLVQSGAEVKKPGASVKVSCKASGYIFSNYWIQWVRQAPGQGLEWMGEILPGSGSTEYTENFKDRVTMTRDTSTSTVYMELSSLRSEDTAVYYCARYFFGSSPNWYFDVWGQGTLVTVSSASTKGPSVFPLAPCSRSTSESTAALGCLVKDYFPEPVTVSWNSGALTSGVHTFPAVLQSSGLYSLSSVVTVPSSNFGTQTYTCNVDHKPSNTKVDKTVERKCCVECPPCPAPPVAGPSVFLFPPKPKDTLMISRTPEVTCVVVDVSQEDPEVQFNWYVDGVEVHNAKTKPREEQFNSTYRVVSVLTVLHQDWLNGKEYKCKVSNKGLPSSIEKTISKAKGQPREPQVYTLPPSQEEMTKNQVSLTCLVKGFYPSDIAVEWESNGQPENNYKTTPPVLDSDGSFFLYSRLTVDKSRWQEGNVFSCSVMHEALHNHYTQKSLSLSLG
light: DIQMTQSPSSLSASVGDRVTITCGASENIYGALNWYQQKPGKAPKLLIYGATNLADGVPSRFSGSGSGTDFTLTISSLQPEDFATYYCQNVLNTPLTFGQGTKVEIKRTVAAPSVFIFPPSDEQLKSGTASVVCLLNNFYPREAKVQWKVDNALQSGNSQESVTEQDSKDSTYSLSSTLTLSKADYEKHKVYACEVTHQGLSSPVTKSFNRGEC
modifications: in PNH patient serum
  cell killing (% non-viable cells) by HELLP serum mixed with eculizumab-containing serum: significant decrease of cell killing
Listed as Eculizumab
  cell killing (% non-viable cells) by HELLP serum mixed with eculizumab-containing serum: significantly lower
Serum diluted 1:1 and 1:2
  cell killing by serum of aHUS patients on eculizumab: almost completely abrogated
Serum from a PNH patient within 60 minutes of eculizumab infusion
  cell killing by eculizumab-containing serum alone: no increase in cell killing
